Results as given in ChEMBL document CHEMBL4622967, “Selective Class I HDAC Inhibitors Based on Aryl Ketone Zinc Binding Induce HIV-1 Protein for Clearance” (ACS Med Chem Lett, 2020).

By UniProt entry, the sequences of proteins in these tests, tags left out.
UniProt Q13547, whole entry: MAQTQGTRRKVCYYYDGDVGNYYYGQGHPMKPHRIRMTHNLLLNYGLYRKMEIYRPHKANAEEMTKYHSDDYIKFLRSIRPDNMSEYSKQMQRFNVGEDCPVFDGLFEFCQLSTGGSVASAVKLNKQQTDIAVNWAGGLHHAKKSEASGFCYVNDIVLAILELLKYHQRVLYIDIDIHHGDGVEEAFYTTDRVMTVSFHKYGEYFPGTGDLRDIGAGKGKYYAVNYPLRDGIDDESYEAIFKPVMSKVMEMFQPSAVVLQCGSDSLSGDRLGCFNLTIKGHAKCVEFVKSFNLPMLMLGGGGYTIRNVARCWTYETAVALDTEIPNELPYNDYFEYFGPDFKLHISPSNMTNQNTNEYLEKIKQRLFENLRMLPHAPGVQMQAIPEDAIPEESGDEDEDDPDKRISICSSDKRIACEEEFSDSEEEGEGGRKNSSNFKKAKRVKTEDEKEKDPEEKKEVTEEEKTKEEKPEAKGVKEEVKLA
UniProt Q92769, whole entry: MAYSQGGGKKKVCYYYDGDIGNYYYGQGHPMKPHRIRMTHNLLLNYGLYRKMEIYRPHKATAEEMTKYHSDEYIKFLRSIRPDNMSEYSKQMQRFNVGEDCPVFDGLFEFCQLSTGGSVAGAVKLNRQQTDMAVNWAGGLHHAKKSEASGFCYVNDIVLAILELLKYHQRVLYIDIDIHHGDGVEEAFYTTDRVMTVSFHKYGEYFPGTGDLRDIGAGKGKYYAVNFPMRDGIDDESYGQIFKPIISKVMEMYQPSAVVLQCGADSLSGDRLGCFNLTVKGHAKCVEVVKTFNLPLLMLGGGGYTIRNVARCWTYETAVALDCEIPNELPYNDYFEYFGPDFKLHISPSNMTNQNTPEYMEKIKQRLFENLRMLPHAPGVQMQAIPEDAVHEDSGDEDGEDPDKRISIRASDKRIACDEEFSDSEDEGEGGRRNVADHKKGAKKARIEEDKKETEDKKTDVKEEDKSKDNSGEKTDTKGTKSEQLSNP

Assays:
Histone deacetylase 8 = biological target: T1, Histone deacetylase 8 (Homo sapiens, UniProt Q9BY41)
T1 sequence (Q9BY41 whole entry): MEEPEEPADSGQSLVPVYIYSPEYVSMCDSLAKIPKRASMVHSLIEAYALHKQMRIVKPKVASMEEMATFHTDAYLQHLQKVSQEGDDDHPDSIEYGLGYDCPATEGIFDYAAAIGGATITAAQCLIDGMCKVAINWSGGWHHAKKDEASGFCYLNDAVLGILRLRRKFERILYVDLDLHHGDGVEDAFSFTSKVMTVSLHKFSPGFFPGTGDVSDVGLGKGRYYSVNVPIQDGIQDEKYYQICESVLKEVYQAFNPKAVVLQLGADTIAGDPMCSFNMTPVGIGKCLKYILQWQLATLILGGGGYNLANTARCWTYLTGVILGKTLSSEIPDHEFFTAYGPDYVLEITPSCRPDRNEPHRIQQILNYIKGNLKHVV

[1] = biological target: T2, Protein deacetylase HDAC6 (Homo sapiens, UniProt Q9UBN7)
T2 sequence (Q9UBN7 whole entry): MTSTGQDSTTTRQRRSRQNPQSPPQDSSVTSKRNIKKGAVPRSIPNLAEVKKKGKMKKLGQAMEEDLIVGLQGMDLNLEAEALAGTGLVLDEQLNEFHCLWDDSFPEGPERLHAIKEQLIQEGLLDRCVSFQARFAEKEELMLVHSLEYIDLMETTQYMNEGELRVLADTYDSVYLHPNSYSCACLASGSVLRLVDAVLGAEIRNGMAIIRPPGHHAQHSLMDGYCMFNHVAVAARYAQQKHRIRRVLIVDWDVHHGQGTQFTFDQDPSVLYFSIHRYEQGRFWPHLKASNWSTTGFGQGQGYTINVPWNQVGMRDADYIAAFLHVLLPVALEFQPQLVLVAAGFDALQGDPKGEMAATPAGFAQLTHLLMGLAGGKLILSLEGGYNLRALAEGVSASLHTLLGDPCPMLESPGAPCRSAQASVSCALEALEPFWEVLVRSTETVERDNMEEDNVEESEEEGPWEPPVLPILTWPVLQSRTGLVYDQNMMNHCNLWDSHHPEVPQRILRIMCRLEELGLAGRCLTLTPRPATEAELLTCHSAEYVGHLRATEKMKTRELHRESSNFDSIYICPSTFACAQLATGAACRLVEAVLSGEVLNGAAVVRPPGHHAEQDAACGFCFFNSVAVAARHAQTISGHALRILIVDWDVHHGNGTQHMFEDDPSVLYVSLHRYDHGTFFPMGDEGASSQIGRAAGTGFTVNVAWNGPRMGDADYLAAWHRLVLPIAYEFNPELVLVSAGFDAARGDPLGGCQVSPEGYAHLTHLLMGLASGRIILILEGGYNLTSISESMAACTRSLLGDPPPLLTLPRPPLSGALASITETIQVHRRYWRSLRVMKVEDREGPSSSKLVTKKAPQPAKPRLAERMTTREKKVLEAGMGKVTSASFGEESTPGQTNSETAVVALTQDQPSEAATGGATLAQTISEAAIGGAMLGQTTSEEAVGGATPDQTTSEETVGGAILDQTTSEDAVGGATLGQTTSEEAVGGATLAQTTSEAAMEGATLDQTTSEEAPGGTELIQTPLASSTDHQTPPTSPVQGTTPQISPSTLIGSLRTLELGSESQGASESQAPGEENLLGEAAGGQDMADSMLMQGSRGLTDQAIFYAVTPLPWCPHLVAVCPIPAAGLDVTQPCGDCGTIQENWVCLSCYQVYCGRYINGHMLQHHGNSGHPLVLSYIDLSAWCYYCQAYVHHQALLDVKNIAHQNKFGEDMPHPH

Histone deacetylase 1 = Histone deacetylase 1 (Homo sapiens, UniProt Q13547); test: biochemical
Histone deacetylase 2 = Histone deacetylase 2 (Homo sapiens, UniProt Q92769); test: biochemical

SMILES | IC50 (Histone deacetylase 8) [nM] | IC50 [1] [nM] | IC50 (Histone deacetylase 1) [nM] | IC50 (Histone deacetylase 2) [nM]
CN1CC(C(=O)N[C@@H](CCCCCC(=O)c2ccon2)c2nnc(-c3ccccc3F)o2)C1 | > 900 | > 900 | – | –
CN1CC(C(=O)N[C@@H](CCCCCC(=O)c2ccon2)c2ncc(-c3ccccc3F)o2)C1 | 32 | > 900 | 0.2 | 0.82
N[C@@H](CCCCCC(=O)c1ccon1)c1cnn(-c2ccc(F)cc2)c1 | – | – | – | 61
N[C@@H](CCCCCC(=O)c1ccon1)c1cnn(-c2ccc(F)cc2)n1 | – | – | 25 | 81
N[C@@H](CCCCCC(=O)c1ccon1)c1cc(-c2ccccc2F)on1 | – | > 900 | – | –
